Data on one molecule can be found in patent US9188584B2, “Capture agents and related compositions, methods and systems” (CALIFORNIA INSTITUTE OF TECHNOLOGY, priority 2008, dated 2015).

Protein sequences, listed by entry. Tags and fused reporters are not part of them.
UniProt P00921, whole entry: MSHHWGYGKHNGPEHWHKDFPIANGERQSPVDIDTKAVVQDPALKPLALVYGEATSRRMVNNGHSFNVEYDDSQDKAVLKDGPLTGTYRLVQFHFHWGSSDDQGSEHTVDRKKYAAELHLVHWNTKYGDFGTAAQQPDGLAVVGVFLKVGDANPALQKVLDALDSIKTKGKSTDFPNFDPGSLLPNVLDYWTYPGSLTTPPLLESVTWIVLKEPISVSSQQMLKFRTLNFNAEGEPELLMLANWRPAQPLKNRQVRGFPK

This assay deals with T1, bCAII (Bos taurus, UniProt P00921).
T1 construct: The bCAII (C2522), from bovine erythrocytes, lyophilized powder; purchased Sigma-Aldrich C2522; host or cells: bovine erythrocytes
Nature of the assay: KD determination by surface plasmon resonance (SPR), immobilized bCAII. More on the design: species or system bovine. The note with it: biligand 2 nM to 5 μM, 1:1 binding fit; read-out: KD / binding affinity to bCAII by SPR. An excerpt:
KD determination by surface plasmon resonance (SPR).

`CC(=O)NC(CCCCn1cc(C[C@@H](NC(=O)[C@@H](CC(C)C)NC(=O)CNC(=O)[C@@H](Cc2c[nH]c3ccccc23)NC(=O)[C@@H](CC(C)C)NC(=O)[C@@H](Cc2c[nH]c3ccccc23)NC(=O)[C@H](N)CCCCN)C(=O)N2CCCCC2)nn1)C(=O)N[C@H](CCCCN)C(=O)N[C@H](Cc1ccccc1)C(=O)N[C@H](Cc1c[nH]c2ccccc12)C(=O)N[C@H](CC(C)C)C(=O)N[C@H](CCCCN)C(=O)N[C@H](CC(C)C)C(=O)O` (stereo partly shown) [kwlwGl-Tz1-kfwlkl]: the Kd came to 3 µM.
